Legend:
[1] = biological target: CYP 2C9 (Homo sapiens, UniProt P11712); assay: Hepatic toxicity: Diclofenac 4′-hydroxylase in human hepatic microsomes
Method: (§1) After incubating at 37° C. for 20 min, 200 μl of each resulting solution was mixed with 100 μl of acetonitrile, and analyzed with LC-MS (LC column: Luna2 C8, 2×100 mm, flow velocity: 0.2 ml/min, MS system: Quattro LC (micromass)) using a 5% MeOH aqueous solution containing 0.1% formic acid as an eluent.

Chains of the proteins cited; added tags and fusions are not shown.
UniProt P11712, whole entry: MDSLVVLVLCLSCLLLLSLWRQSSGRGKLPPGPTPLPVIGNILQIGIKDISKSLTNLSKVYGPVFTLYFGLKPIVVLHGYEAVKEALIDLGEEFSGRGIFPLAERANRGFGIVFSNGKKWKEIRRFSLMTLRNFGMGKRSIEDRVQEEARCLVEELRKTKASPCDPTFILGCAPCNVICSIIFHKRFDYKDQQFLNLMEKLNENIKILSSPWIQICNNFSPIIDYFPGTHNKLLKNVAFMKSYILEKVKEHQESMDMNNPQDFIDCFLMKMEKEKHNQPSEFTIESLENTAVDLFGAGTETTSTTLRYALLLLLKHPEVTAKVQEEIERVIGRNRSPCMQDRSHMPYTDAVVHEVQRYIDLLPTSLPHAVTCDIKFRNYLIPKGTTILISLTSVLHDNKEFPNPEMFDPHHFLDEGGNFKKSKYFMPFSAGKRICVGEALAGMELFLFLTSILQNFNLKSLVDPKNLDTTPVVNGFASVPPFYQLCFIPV
UniProt P33261, whole entry: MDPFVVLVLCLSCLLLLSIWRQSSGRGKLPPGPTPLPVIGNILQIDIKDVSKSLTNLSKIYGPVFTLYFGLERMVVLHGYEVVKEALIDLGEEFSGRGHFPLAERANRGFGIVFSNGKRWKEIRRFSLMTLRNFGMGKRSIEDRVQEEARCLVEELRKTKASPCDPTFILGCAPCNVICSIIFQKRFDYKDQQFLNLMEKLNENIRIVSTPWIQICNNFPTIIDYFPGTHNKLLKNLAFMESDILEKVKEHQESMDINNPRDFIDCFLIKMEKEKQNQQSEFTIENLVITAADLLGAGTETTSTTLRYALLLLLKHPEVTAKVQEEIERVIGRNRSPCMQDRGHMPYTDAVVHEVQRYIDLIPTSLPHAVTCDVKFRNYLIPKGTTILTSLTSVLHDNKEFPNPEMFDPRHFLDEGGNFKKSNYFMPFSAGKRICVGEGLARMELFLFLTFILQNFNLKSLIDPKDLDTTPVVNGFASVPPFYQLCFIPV

[2] = biological target: CYP 2C19 (Homo sapiens, UniProt P33261); assay: Hepatic toxicity: Mephenytoin 4-hydroxylase in human hepatic microsomes
Method: as §1

Question: `OC(Cn1cncn1)(Cn1cncn1)c1ccc(F)cc1F` [Fluconazole, reference compound] was tested. Which IC50 [1] did it give?
Answer: Its IC50 is 46.4 µM.

Question: What about the IC50 [2] of the same compound?
Answer: Its IC50 is 7.1 µM.

Reference: patent US20080027117A1, “Antifungal Azole Derivatives Having a Fluorovinyl Moiety and Process for the Preparation Thereof” (KOREA RESERACH INSTIITUTE OF CHEMICAL TECHNOLOGY, priority 2003, published 2008)
